Laboratory results published in PubChem BioAssay AID2366 (The Scripps Research Institute Molecular Screening Center, 2010).

Protein sequences, listed by entry. Tags and fused reporters are not part of them. Lines headed by an entry give the natural chain unless they say otherwise; changes in a name come on top.
UniProt Q9Y570: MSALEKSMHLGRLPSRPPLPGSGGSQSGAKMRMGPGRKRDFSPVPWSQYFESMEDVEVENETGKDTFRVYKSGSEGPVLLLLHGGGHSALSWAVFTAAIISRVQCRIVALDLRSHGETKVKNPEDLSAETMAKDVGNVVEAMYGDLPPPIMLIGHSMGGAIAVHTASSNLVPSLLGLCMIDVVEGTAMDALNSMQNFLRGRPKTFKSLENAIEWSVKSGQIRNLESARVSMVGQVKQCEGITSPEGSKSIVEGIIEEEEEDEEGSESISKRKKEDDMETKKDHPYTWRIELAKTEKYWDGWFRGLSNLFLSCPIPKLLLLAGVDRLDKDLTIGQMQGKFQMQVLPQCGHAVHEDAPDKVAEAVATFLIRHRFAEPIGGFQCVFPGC

Target: Protein phosphatase methylesterase 1 (Homo sapiens) (UniProt Q9Y570)
Assay: PME-1 inhibitor potency by in-gel ABPP, dose response, selectivity assay for PME-1 inhibitor project, cell lysate, mouse brain cytosol, FP-rhodamine (AID 2366)

IC50 | Compound
4.8 µM | N#C/C(=C\c1cccn1S(=O)(=O)c1ccccc1)S(=O)(=O)c1ccc(F)cc1
3 µM | CS(=O)(=O)/C(C#N)=C/c1cccn1S(=O)(=O)c1ccc(Cl)cc1
